This note sets out measurements from patent US20160195533A1 (MEDICINAL BIOCONVERGENCE RESEARCH CENTER, published 2016).

Experiment [1] addresses T1, glutamyl-prolyl-tRNA synthetase (EPRS), endogenous protein of A549 or HEK293T cells (human, UniProt P07814).
T1 construct: Endogenous protein in lysates of human cell lines (A549 cytosol and nucleus fractions; HEK293T); also called endogenous EPRS; EPRS (WT)
Briefly: endogenous co-IP with anti-EPRS antibody and protein A-agarose from A549 cytoplasm and nucleus fractions, anti-Snail1 western blot. Here is the method: For the detection of endogenous EPRS interaction with Snail1 in nucleus and cytosol, the protein extracts were incubated with protein A agarose (Life technologies) for 30 minutes on ice, and then centrifuged to remove nonspecific IgG binding proteins. The pre-cleared supernatants were mixed with anti-EPRS antibody, incubated the mixture for 2 h at 4° C. with gentle agitation, added protein A agarose for 2 h, and centrifuged. After washing the precipitates with the cold lysis buffer 3-5 times, the precipitates were dissolved in the 2×SDS sample buffer and separated by SDS-PAGE.
The interaction between EPRS and Snail1 were verified at the endogenous level of cytoplasm and nucleus. A549 cells were treated with TGF-β1 of different concentrations (0, 1, 10, 20 ng/ml) for 48 hours, fractionated into the cytoplasm and the nucleus, and then subjected endo-IP using protein A-agarose beads (Invitrogen) and EPRS antibody.
On the technique in general: In western blotting, separated proteins are transferred to a membrane and probed.

Experiment [2] concerns the target T2, Flag-tagged EPRS (human Flag-tagged EPRS expression vector, Origene) (human, UniProt P07814).
T2 construct: Bought vector; The order of the parts is therefore not known; also called Flag-EPRS; not shown: Flag tag
Briefly: co-IP with anti-FLAG M2 affinity gel from co-transfected HEK293T cells, anti-Strep western blot. From the text: The interaction between EPRS and Snail1 was verified through IP after co-transfection of the proteins. HEK293T cells were co-transfected with (1) FLAG-tag empty vector and STREP-tag empty vector, (2) FLAG-tag empty vector and STREP-tagged Snail1 expression vector, (3) FLAG-tagged EPRS expression vector and STREP-tag empty vector, (4) FLAG-tagged EPRS expression vector and STR EP-tagged Snail1 expression vector, that is, in a total of four types of conditions, and then respective proteins were overexpressed, and then IP was performed using the anti-FLAG M2 affinity gel (Sigma).

B1: Snail1, endogenous protein of A549, HCC44, HEK293T or H1299 cells (other)
chain: MPRSFLVRKPSDPNRKPNYSELQDSNPEFTFQQPYDQAHLLAAIPPPEILNPTASLPMLIWDSVLAPQAQPIAWASLRLQESPRVAELTSLSDEDSGKGSQPPSPPSPAPSSFSSTSVSSLEAEAYAAFPGLGQVPKQLAQLSEAKDLQARKAFNCKYCNKEYLSLGALKMHIRSHTLPCVCGTCGKAFSRPWLLQGHVRTHTGEKPFSCPHCSRAFADRSNLRAHLQTHSDVKKYQCQACARTFSRMSLLHKHQESGCSGCPR
notes: Endogenous protein in cell lysates
For B1, in experiment [1], the binding result is reported as “binds”.

B2: Strep-tagged Snail1 (pEXPR-IBA105-Snail1) (other)
chain: B1 chain
notes: Overexpressed in HEK293T (or A549) cells; assayed in cell lysate; also called Strep-Snail; STREP-tag Snail1; not shown: Strep tag of pEXPR-IBA-105, at the N-terminus ('in the same manner as described above')
Consider B2, for which the binding result in experiment [2] is recorded as “binds”.
